Literature values in patent US20240016441A1, “SODIUM L-LACTATE INFUSION FOR EARLY DIAGNOSIS OF PARKINSON'S DISEASE” (priority 2023, published 2024).
Read-outs that look alike come from different tables or passages of the source.

Tests used:
[1] = baseline 8.1 mg/dL
[2] = 84 mEq/L at 5 ml*kg^-1*h^-1 for 3.5 hours, single anesthetized patient
[3] = 350 mmol/L; priming 150 or 300 μmol/kg over 5 min, then 10 or 20 μmol*kg^-1*min^-1 for ~120 min

In the case of `C[C@H](O)C(=O)[O-].[Na+]` [sodium L-lactate], the “L-lactate level at which safety has been demonstrated” value ([1]; anesthetized patients) is listed as 41.3 mg/dL, the “L-lactate level at which safety has been demonstrated” value ([1]; non-anesthetized patients) is listed as 24.9 mg/dL and the “maximum L-lactate whole-blood concentration” value [2] is listed as 41.3 mg/dL.

For `[13CH3]C(O)C(=O)[O-].[Na+]` [sodium [3-^13C] L-lactate], the “maximum L-lactate plasma concentration” value [3] is given as 24.9 mg/dL.
